For one compound, activity score results are on record in PubChem BioAssay AID1875 (Broad Institute, 2009).

Only a part is listed here, and it is no random draw. Active and inactive are the calls of the source.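 How the source made its calls: active means lowest replicate activity score at least 50, where 100 means six control SD above control mean; inconclusive means lowest score under 50 but half or more replicates reach 50; inactive means the rest.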

This experiment is described as follows: polyadenylation inhibitors in yeast reporter cells, primary screen, luminescence, S. cerevisiae (AID 1875).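 Further: yeast exposed to compound for 9 h at 30 °C; higher score means more reporter readthrough which indicates perturbed polyadenylation.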 The conditions noted are these: S. cerevisiae SKY197-pL101 polyadenylation reporter, beta-gal luminescence; at 12 µM; hits give high values; efflux-impaired pdr1/pdr3 knockout yeast; score 100 = 6 SD above DMSO.
As to `CCC(=O)N1C2C3N(C(=O)CC)C1C1N(C(=O)CC)C(C(N1C(=O)CC)N3C(=O)CC)N2C(=O)CC`, the activity score is inactive: 1.47%.
